From paper PMC8438977, “Isolation of bioactive compounds from medicinal plants used in traditional medicine: Rautandiol B, a potential lead compound against Plasmodium falciparum” (BMC Complementary Medicine and Therapies, 2021)

Amino acid sequences for entries named in this document (tags omitted). A change or cut given only in a name is not applied to a line headed by its entry.
UniProt P53341: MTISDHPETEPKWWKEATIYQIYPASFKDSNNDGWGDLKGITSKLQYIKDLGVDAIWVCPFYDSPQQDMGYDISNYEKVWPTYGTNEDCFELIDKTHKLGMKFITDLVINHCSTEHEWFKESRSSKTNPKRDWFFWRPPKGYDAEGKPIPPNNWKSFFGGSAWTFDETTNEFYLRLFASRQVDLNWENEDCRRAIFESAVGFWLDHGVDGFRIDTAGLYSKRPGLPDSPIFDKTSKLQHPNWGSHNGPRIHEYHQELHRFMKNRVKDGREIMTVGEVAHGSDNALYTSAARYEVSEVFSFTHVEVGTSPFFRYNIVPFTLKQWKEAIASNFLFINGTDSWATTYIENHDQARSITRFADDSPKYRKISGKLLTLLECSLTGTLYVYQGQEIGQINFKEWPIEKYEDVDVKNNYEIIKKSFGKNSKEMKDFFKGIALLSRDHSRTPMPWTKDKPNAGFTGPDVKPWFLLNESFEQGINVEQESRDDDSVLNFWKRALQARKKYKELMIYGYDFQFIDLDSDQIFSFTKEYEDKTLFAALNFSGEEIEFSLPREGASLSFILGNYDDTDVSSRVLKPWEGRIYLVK

Target: T1, α-glucosidase (AG) (Saccharomyces cerevisiae, UniProt P53341)
T1 construct: purchased Sigma
Format: biochemical, S. cerevisiae
Method: AGI values of extracts and pure phytochemicals were quantitatively determined in a 96-well plastic plate according to the method described by Nguyen et al.. The enzyme was incubated with the samples dissolved in DMSO for 5 min before adding the substrate. The inhibition was measured spectrophotometrically in 20 mM sodium phosphate buffer pH 6.0 at 37 °C using 3.0 mM p-nitrophenyl α-D-glucopyranoside (Sigma) as the substrate and 0.25 units/mL of AG from S. cerevisiae (Sigma). The absorbance at 405 nm was measured using a microplate reader (BioTek ELx808 microplate reader, USA).

C[C@H]1O[C@H](O[C@H]2[C@H](O)[C@@H](O)[C@@H](O[C@H]3[C@H](O)[C@@H](O)C(O)O[C@@H]3CO)O[C@@H]2CO)[C@H](O)[C@@H](O)[C@@H]1N[C@H]1C=C(CO)[C@@H](O)[C@H](O)[C@H]1O (some centres unmarked) [Acarbose, reference compound]
% Inhibition (AGI activity), positive control: 86.5 ± 0.4%
AGI activity, percentage inhibition, positive control: 71.3%
